This experiment deals with Son of sevenless homolog 1 (Homo sapiens, UniProt Q07889, G12C). Nature of the experiment: Binding affinity to SOS1 in human NCI-H358 cells expressing KRAS G12C mutant assessed as dissociation constant. It counts as cell-based.

By UniProt entry, the sequences of proteins in these tests, tags left out.
UniProt Q07889, whole entry, looked up, stated change not applied: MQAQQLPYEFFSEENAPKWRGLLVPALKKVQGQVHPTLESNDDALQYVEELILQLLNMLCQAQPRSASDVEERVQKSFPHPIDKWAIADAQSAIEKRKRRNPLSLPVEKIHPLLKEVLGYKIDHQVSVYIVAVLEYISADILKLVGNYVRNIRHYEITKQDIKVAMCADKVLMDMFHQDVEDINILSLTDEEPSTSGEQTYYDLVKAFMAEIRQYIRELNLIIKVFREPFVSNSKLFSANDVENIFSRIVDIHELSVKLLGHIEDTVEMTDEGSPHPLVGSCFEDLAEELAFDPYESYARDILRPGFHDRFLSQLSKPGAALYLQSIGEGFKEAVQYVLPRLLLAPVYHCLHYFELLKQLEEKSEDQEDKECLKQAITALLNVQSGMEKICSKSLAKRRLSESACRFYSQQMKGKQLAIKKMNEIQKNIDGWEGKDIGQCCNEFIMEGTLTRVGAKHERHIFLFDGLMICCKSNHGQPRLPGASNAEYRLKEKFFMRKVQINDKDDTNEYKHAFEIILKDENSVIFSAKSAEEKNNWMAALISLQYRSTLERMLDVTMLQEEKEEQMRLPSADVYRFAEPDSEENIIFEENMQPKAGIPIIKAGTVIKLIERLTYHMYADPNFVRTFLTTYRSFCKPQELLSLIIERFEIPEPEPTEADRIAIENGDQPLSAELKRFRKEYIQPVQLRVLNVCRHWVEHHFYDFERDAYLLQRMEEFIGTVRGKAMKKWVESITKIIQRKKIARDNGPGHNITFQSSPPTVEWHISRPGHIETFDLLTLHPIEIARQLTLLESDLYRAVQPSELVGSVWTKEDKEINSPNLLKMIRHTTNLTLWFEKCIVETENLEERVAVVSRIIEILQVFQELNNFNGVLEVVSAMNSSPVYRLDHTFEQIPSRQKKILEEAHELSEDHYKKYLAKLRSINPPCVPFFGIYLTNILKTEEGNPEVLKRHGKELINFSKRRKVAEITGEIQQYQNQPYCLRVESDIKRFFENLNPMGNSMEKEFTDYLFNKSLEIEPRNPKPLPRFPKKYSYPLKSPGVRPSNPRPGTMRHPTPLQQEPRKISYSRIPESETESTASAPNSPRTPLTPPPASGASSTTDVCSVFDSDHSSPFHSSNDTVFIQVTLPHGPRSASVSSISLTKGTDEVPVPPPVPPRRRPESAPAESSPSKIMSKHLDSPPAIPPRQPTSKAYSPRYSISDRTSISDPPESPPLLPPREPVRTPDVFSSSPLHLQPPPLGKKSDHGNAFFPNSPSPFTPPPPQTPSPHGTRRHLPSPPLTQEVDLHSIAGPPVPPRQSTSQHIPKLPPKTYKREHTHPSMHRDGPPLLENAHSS

`Cc1cc(Cn2c(N3CCNCC3)nc3c(-c4c(C)n[nH]c4C)cc(Cl)cc32)cc(C)c1F`: the dissociation constant (Kd) (in general, a measure of binding affinity in units of concentration) is less than 0.01 µM.

(Values after ChEMBL document CHEMBL5512628, “Current advances and development strategies of targeting son of sevenless 1 (SOS1) in drug discovery” (Eur J Med Chem, 2024).)
